Measured values taken from PubChem BioAssay (NCI).
Several values for one entry are separate records, joined by “and”; a condition that tells them apart may be missing. Equal entries are not always repeated. Only a part is listed here, and it is no random draw.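 Testing used 96-well plates and a 48-hour single-concentration exposure. Example: -40 means 40% of the starting cells died.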 Activity calls are given as the source filed them. Rule for the calls: active = growth percent below 10; inactive = the rest.

Key:
Assay in all cases: NCI-60 one-dose screen, 48 h (100 = growth as untreated, 0 = no growth, -100 = all killed)
Details in all cases: 10 µM unless noted
NCI-H23 lung = tested on: NCI-H23 lung
NCI-H226 lung = tested on: NCI-H226 lung
NCI-H322M lung = tested on: NCI-H322M lung
HOP-62 NSCLC = tested on: HOP-62 NSCLC
NCI-H460 lung = tested on: NCI-H460 lung
HOP-92 NSCLC = tested on: HOP-92 NSCLC
NCI-H522 lung = tested on: NCI-H522 lung
A549/ATCC NSCLC = tested on: A549/ATCC NSCLC
786-0 renal = tested on: 786-0 renal
COLO 205 colon = tested on: COLO 205 colon
DU-145 prostate = tested on: DU-145 prostate
K-562 leukemia = tested on: K-562 leukemia
MALME-3M melanoma = tested on: MALME-3M melanoma
MDA-MB-231 breast = tested on: MDA-MB-231 breast
RXF 393 renal = tested on: RXF 393 renal
SF-268 CNS = tested on: SF-268 CNS
SF-295 CNS = tested on: SF-295 CNS
SF-539 CNS = tested on: SF-539 CNS
UACC-257 melanoma = tested on: UACC-257 melanoma
M14 melanoma = tested on: M14 melanoma

Measured: growth

CCP(Cl)(Cl)(Cl)CC
inactive: NCI-H23 lung 94.8% | NCI-H226 lung 101% | NCI-H322M lung 100% | HOP-62 NSCLC 101% | NCI-H460 lung 103% | HOP-92 NSCLC 43% | NCI-H522 lung 74.2% | A549/ATCC NSCLC 99.9% | 786-0 renal 96.2% | COLO 205 colon 112% | DU-145 prostate 97.7% | K-562 leukemia 91.9% | MALME-3M melanoma 80.5% | MDA-MB-231 breast 98.5% | RXF 393 renal 91.9% | SF-268 CNS 102% | SF-295 CNS 94.8% | SF-539 CNS 86.2% | UACC-257 melanoma 85.9% | M14 melanoma 95.1%

CC(Cc1ccccc1)N(CCCl)Cc1ccccc1 (stereo not drawn)
inactive: NCI-H23 lung 93.6% | NCI-H226 lung 78.9% | NCI-H322M lung 97.5% | HOP-62 NSCLC 96.8% | NCI-H460 lung 110% | HOP-92 NSCLC 99% | NCI-H522 lung 72.6% | A549/ATCC NSCLC 91.1% | 786-0 renal 97.4% | COLO 205 colon 110% | DU-145 prostate 106% | K-562 leukemia 91.9% | MALME-3M melanoma 95.4% | MDA-MB-231 breast 106% | RXF 393 renal 113% | SF-268 CNS 103% | SF-295 CNS 94.4% | SF-539 CNS 97.5% | UACC-257 melanoma 91.1% | M14 melanoma 95.5%

Cc1ccccc1C(=O)N(CCCl)CCCl
inactive: NCI-H23 lung 108% | NCI-H226 lung 93.8% | NCI-H322M lung 99% | HOP-62 NSCLC 106% | NCI-H460 lung 106% | HOP-92 NSCLC 84.8% | NCI-H522 lung 88.5% | A549/ATCC NSCLC 105% | 786-0 renal 105% | COLO 205 colon 118% | DU-145 prostate 125% | K-562 leukemia 100% | MALME-3M melanoma 101% | MDA-MB-231 breast 112% | RXF 393 renal 89.4% | SF-268 CNS 111% | SF-539 CNS 100% | UACC-257 melanoma 99.6% | M14 melanoma 107%

N/C(=N\N=C\c1ccc([N+](=O)[O-])o1)N[N+](=O)[O-]
inactive: NCI-H23 lung 97.8% | NCI-H226 lung 97.6% | NCI-H322M lung 104% | HOP-62 NSCLC 98.8% | NCI-H460 lung 99.9% | HOP-92 NSCLC 128% | NCI-H522 lung 85.4% | A549/ATCC NSCLC 91.4% | 786-0 renal 107% | COLO 205 colon 90.6% | DU-145 prostate 110% | K-562 leukemia 101% | MALME-3M melanoma 81% | MDA-MB-231 breast 92.8% | RXF 393 renal 110% | SF-268 CNS 96.4% | SF-295 CNS 101% | UACC-257 melanoma 94.7% | M14 melanoma 98.6%

N#CC(C#N)=C(C#N)N(CCCl)CCCl
inactive: NCI-H23 lung 86.2% | NCI-H226 lung 97.2% | NCI-H322M lung 108% | HOP-62 NSCLC 106% | NCI-H460 lung 45.1% | HOP-92 NSCLC 98.3% | NCI-H522 lung 94.4% | A549/ATCC NSCLC 93.5% | 786-0 renal 110% | COLO 205 colon 116% | DU-145 prostate 104% | K-562 leukemia 98.4% | MALME-3M melanoma 106% | MDA-MB-231 breast 103% | RXF 393 renal 115% | SF-268 CNS 98.9% | SF-295 CNS 108% | SF-539 CNS 102% | UACC-257 melanoma 97.7% | M14 melanoma 106%

COc1cc([N+](=O)[O-])c([N+](=O)[O-])cc1N
inactive: NCI-H23 lung 103% | NCI-H226 lung 100% | NCI-H322M lung 97.7% | HOP-62 NSCLC 97.5% | NCI-H460 lung 104% | HOP-92 NSCLC 74.8% | NCI-H522 lung 92.3% | A549/ATCC NSCLC 97.1% | 786-0 renal 101% | COLO 205 colon 97.8% | DU-145 prostate 113% | K-562 leukemia 117% | MALME-3M melanoma 101% | MDA-MB-231 breast 102% | RXF 393 renal 110% | SF-268 CNS 104% | SF-295 CNS 99.8% | SF-539 CNS 94.7% | UACC-257 melanoma 98% | M14 melanoma 102%

O=[N+]([O-])c1cc(Cl)cc([N+](=O)[O-])c1O
inactive: NCI-H23 lung 111% | NCI-H226 lung 106% | NCI-H322M lung 110% | HOP-62 NSCLC 92.4% | NCI-H460 lung 104% | HOP-92 NSCLC 97.1% | NCI-H522 lung 89.5% | A549/ATCC NSCLC 86.3% | 786-0 renal 100% | COLO 205 colon 103% | DU-145 prostate 116% | K-562 leukemia 105% | MALME-3M melanoma 114% | MDA-MB-231 breast 109% | RXF 393 renal 114% | SF-268 CNS 104% | SF-295 CNS 102% | SF-539 CNS 107% | UACC-257 melanoma 87.9% | M14 melanoma 102%

CC(Cl)CN(CC(C)Cl)C(=O)OCC(N)C(=O)O (stereo not drawn)
inactive: NCI-H23 lung 102% and 65.1% | NCI-H226 lung 98.5% and 93.1% | NCI-H322M lung 121% and 102% | HOP-62 NSCLC 92.8% and 107% | NCI-H460 lung 109% and 111% | HOP-92 NSCLC 94.9% | NCI-H522 lung 88.9% and 110% | A549/ATCC NSCLC 102% | 786-0 renal 104% and 96.3% | COLO 205 colon 96.5% and 106% | DU-145 prostate 125% and 123% | K-562 leukemia 109% and 108% | MALME-3M melanoma 115% and 112% | MDA-MB-231 breast 103% and 112% | RXF 393 renal 115% | SF-268 CNS 108% and 106% | SF-295 CNS 113% and 91.1% | SF-539 CNS 111% and 112% | UACC-257 melanoma 101% | M14 melanoma 98.3% and 105%
